Laboratory results from US12692247B2, “Phenyl- and pyridopyrazole derivatives as inhibitors of DDR1” (Redx Pharma Limited, priority 2021, dated 2026).

The chains behind the UniProt entries cited, without tags or fusion partners. Residues count along the entry.
UniProt Q16832, 427-855 limits assumed: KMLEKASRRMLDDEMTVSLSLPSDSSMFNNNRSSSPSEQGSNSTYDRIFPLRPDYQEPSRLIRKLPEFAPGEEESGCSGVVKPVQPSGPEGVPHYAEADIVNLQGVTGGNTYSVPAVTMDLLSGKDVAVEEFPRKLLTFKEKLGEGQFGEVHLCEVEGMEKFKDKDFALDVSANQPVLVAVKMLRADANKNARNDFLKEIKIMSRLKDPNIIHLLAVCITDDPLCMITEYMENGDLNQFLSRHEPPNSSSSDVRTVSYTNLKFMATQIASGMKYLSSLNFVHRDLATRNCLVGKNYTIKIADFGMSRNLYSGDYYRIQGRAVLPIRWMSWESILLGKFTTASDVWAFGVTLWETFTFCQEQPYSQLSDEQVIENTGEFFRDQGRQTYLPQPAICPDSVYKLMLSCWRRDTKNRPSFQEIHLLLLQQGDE
UniProt Q08345, 440-876 isoform 2 limits assumed: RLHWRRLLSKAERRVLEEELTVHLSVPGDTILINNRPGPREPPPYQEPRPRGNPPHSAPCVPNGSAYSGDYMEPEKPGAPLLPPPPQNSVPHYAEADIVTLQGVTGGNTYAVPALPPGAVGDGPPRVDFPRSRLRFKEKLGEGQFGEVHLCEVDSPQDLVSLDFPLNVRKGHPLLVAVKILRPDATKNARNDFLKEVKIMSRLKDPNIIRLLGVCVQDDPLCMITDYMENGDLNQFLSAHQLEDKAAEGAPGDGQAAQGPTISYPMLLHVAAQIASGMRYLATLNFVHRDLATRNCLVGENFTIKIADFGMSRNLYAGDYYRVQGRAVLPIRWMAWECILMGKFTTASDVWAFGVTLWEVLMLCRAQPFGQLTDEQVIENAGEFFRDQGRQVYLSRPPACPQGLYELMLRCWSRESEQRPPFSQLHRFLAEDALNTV

Tests used:
[1] = target: Recombinant human DDR2 (Homo sapiens, UniProt Q16832); experiment: LanthaScreen Eu Kinase Binding Assay, DDR2; settings: recombinant human DDR2 (1.75 nM; aa427-855, GST tag), Kinase Tracer 178 10 nM, time-resolved fluorescence, at least two independent replicates
[2] = target: Recombinant human DDR1 (Homo sapiens, UniProt Q08345); experiment: LanthaScreen Eu Kinase Binding Assay, DDR1; settings: recombinant human DDR1 (2.5 nM; aa440-876, GST tag), Kinase Tracer 178 5 nM, time-resolved fluorescence, at least two independent replicates

Compound	DDR2 pIC50 [1]	DDR1 pIC50 [2]
Cn1ncc2cc(Nc3cccc4ccn(CC(=O)Nc5cccc(C(C)(C)O)c5)c(=O)c34)cnc21	C (7≥pIC50>6)	B (8≥pIC50>7)
C[C@H](NC(=O)Cn1ccc2ccc(F)c(Nc3ccc4c(cnn4C)c3)c2c1=O)C(F)(F)F	B (8≥pIC50>7)	A (pIC50>8)
Cc1n[nH]c2cc(Nc3cccc4ccn(CC(=O)NCC(F)(F)F)c(=O)c34)cc(F)c12	C (7≥pIC50>6)	B (8≥pIC50>7)
Cn1ncc2ccc(Nc3cccc4ccn(CC(=O)NCC(F)(F)F)c(=O)c34)cc21	D (pIC50≤6)	D (pIC50≤6)
Cc1n[nH]c2cc(Nc3cccc4ccn(CC(=O)NCC(F)(F)F)c(=O)c34)ccc12	C (7≥pIC50>6)	B (8≥pIC50>7)
Cc1n[nH]c2cc(Nc3cccc4ccn(CC(=O)N[C@@H](C)C(F)(F)F)c(=O)c34)ccc12	B (8≥pIC50>7)	A (pIC50>8)
Cc1n[nH]c2cc(Nc3cccc4ccn(CC(=O)Nc5cccc(C(C)(C)O)c5)c(=O)c34)ccc12	B (8≥pIC50>7)	A (pIC50>8)
Cn1ncc2cc(Nc3cccc4ccn(CC(=O)NCC(F)(F)F)c(=O)c34)cnc21	C (7≥pIC50>6)	C (7≥pIC50>6)
Cn1ncc2cc(Nc3cccc4ccn(C(F)C(=O)NCC(F)(F)F)c(=O)c34)ccc21 (centres unmarked)	D (pIC50≤6)	C (7≥pIC50>6)
O=C(Cn1ccc2cccc(Nc3cnc4[nH]ncc4c3)c2c1=O)Nc1cnoc1	C (7≥pIC50>6)	B (8≥pIC50>7)
Cn1ncc2cc(Nc3c(F)ccc4ccn(CC(=O)NCC(F)(F)F)c(=O)c34)cc(Cl)c21	B (8≥pIC50>7)	A (pIC50>8)
O=C(Cn1ccc2cccc(Nc3cnc4[nH]ncc4c3)c2c1=O)Nc1cccc(C(F)(F)F)c1	D (pIC50≤6)	B (8≥pIC50>7)
Cn1ncc2cc(Nc3c(F)ccc4ccn(CC(=O)Nc5cccc(C(C)(C)O)c5)c(=O)c34)ccc21	B (8≥pIC50>7)	A (pIC50>8)
Cn1ncc2cc(Nc3cccc4ccn(CC(=O)Nc5ccc(C(C)(C)O)cc5)c(=O)c34)ccc21	B (8≥pIC50>7)	B (8≥pIC50>7)
O=C(Cn1ccc2cccc(Nc3ccc4[nH]ncc4c3)c2c1=O)Nc1cccc(C(F)(F)F)c1	B (8≥pIC50>7)	B (8≥pIC50>7)
CN(c1ccc2c(cnn2C)c1)c1cccc2ccn(CC(=O)Nc3cccc(C(C)(C)O)c3)c(=O)c12	C (7≥pIC50>6)	B (8≥pIC50>7)
Cn1ncc2cc(Nc3cccc4ccn(CC(=O)N5CCC(C)(O)CC5)c(=O)c34)ccc21	D (pIC50≤6)	C (7≥pIC50>6)
Cc1n[nH]c2cc(N(C)c3cccc4ccn(CC(=O)NCC(F)(F)F)c(=O)c34)ccc12	C (7≥pIC50>6)	B (8≥pIC50>7)
CC(C)(O)c1cccc(NC(=O)Cn2ccc3cccc(Nc4cnc5[nH]ncc5c4)c3c2=O)c1	C (7≥pIC50>6)	A (pIC50>8)
Cn1ncc2cc(Nc3c(F)ccc4ccn(CC(=O)Nc5cccc(C(F)(F)F)c5)c(=O)c34)ccc21		B (8≥pIC50>7)
COc1cccc(NC(=O)Cn2ccc3cccc(Nc4ccc5c(cnn5C)c4)c3c2=O)c1	B (8≥pIC50>7)	A (pIC50>8)
Cc1n[nH]c2ccc(Nc3cccc4ccn(CC(=O)NCC(F)(F)F)c(=O)c34)cc12	D (pIC50≤6)	D (pIC50≤6)
Cn1ncc2ncc(Nc3cccc4ccn(CC(=O)NCC(F)(F)F)c(=O)c34)cc21	D (pIC50≤6)	D (pIC50≤6)
Cc1n[nH]c2cc(Nc3c(F)ccc4ccn(CC(=O)NCC(F)(F)F)c(=O)c34)ccc12	B (8≥pIC50>7)	A (pIC50>8)
Cn1ncc2cc(Nc3cccc4ccn(CC(=O)N5CCC(C(C)(C)O)CC5)c(=O)c34)ccc21	D (pIC50≤6)	C (7≥pIC50>6)
Cn1ncc2cc(Nc3cccc4ccn(CC(=O)Nc5cncc(C(C)(C)O)c5)c(=O)c34)ccc21	B (8≥pIC50>7)	B (8≥pIC50>7)
Cn1ncc2cc(Nc3c(F)ccc4ccn(CC(=O)NCC(F)(F)F)c(=O)c34)cnc21	C (7≥pIC50>6)	B (8≥pIC50>7)
Cn1ncc2cc(Nc3cccc4ccn(CC(=O)N5CCC(C(C)(C)O)C5)c(=O)c34)ccc21 (centres unmarked)	C (7≥pIC50>6)	C (7≥pIC50>6)
Cn1ncc2cc(Nc3ccc(F)c4ccn(CC(=O)NCC(F)(F)F)c(=O)c34)ccc21	C (7≥pIC50>6)	B (8≥pIC50>7)
Cn1ncc2c(C#N)cc(Nc3cccc4ccn(CC(=O)NCC(F)(F)F)c(=O)c34)cc21	D (pIC50≤6)	D (pIC50≤6)

Results, then the compound that gave them:

DDR2 pIC50 [1]	DDR1 pIC50 [2]	Compound
D (pIC50≤6)	B (8≥pIC50>7)	N#Cc1cc(Nc2cccc3ccn(CC(=O)NCC(F)(F)F)c(=O)c23)cc2[nH]ncc12
B (8≥pIC50>7)	A (pIC50>8)	Cn1ncc2cc(Nc3cccc4ccn(CC(=O)N5CCC[C@H]5C(F)(F)F)c(=O)c34)cc(F)c21
D (pIC50≤6)	C (7≥pIC50>6)	CC(C)(O)c1cc(Nc2cccc3ccn(CC(=O)NCC(F)(F)F)c(=O)c23)cc2cn[nH]c12
C (7≥pIC50>6)	C (7≥pIC50>6)	Cc1cc2[nH]ncc2cc1Nc1cccc2ccn(CC(=O)NCC(F)(F)F)c(=O)c12
D (pIC50≤6)		CN(C)c1cc(Nc2cccc3ccn(CC(=O)NCC(F)(F)F)c(=O)c23)cc2cnn(C)c12
D (pIC50≤6)	C (7≥pIC50>6)	O=C(Cn1ccc2cccc(Nc3cnc4cn[nH]c4c3)c2c1=O)NCC(F)(F)F
D (pIC50≤6)	C (7≥pIC50>6)	O=C(Cn1ccc2cccc(Nc3cnc4[nH]ncc4c3)c2c1=O)NCC(F)(F)F
B (8≥pIC50>7)	A (pIC50>8)	O=C(Cn1ccc2cccc(Nc3cc(F)c4[nH]ncc4c3)c2c1=O)NCC(F)(F)F
B (8≥pIC50>7)	A (pIC50>8)	O=C(Cn1ccc2cccc(Nc3cc(Cl)c4[nH]ncc4c3)c2c1=O)N1CCC[C@H]1C(F)(F)F
	A (pIC50>8)	O=C(Cn1ccc2cccc(Nc3cc([N+](=O)[O-])c4[nH]ncc4c3)c2c1=O)NCC(F)(F)F
D (pIC50≤6)	D (pIC50≤6)	Cc1nc2[nH]ncc2cc1Nc1cccc2ccn(CC(=O)NCC(F)(F)F)c(=O)c12
B (8≥pIC50>7)	A (pIC50>8)	Cc1n[nH]c2cc(Nc3cccc4ccn(CC(=O)N5CCC[C@H]5C(F)(F)F)c(=O)c34)ccc12
C (7≥pIC50>6)	A (pIC50>8)	Cc1cc(Nc2cccc3ccn(CC(=O)NCC(F)(F)F)c(=O)c23)cc2cn[nH]c12
B (8≥pIC50>7)	A (pIC50>8)	N#Cc1cc(Nc2cccc3ccn(CC(=O)NCC(F)(F)F)c(=O)c23)cc2cn[nH]c12
C (7≥pIC50>6)	B (8≥pIC50>7)	NC(=O)c1cc(Nc2cccc3ccn(CC(=O)NCC(F)(F)F)c(=O)c23)cc2cn[nH]c12
C (7≥pIC50>6)	A (pIC50>8)	Cn1ncc2cc(Nc3cccc4ccn(CC(=O)NCC(F)(F)F)c(=O)c34)cc(Cl)c21

DDR2 pIC50 [1]	DDR1 pIC50 [2]	Compound
C (7≥pIC50>6)	B (8≥pIC50>7)	CC(C)c1cc(Nc2cccc3ccn(CC(=O)NCC(F)(F)F)c(=O)c23)cc2cn[nH]c12
B (8≥pIC50>7)	A (pIC50>8)	O=C(Cn1ccc2cccc(Nc3cc(C4CC4)c4[nH]ncc4c3)c2c1=O)NCC(F)(F)F
B (8≥pIC50>7)	A (pIC50>8)	Cn1ncc2cc(Nc3c(F)ccc4ccn(CC(=O)N5CCC[C@H]5C(F)(F)F)c(=O)c34)ccc21
D (pIC50≤6)	C (7≥pIC50>6)	Cn1ncc2cc(Nc3cccc4ccn(CC(=O)N5CCCC5CC(C)(C)O)c(=O)c34)ccc21 (centres unmarked)
B (8≥pIC50>7)	A (pIC50>8)	N#Cc1cc(Nc2cccc3ccn(CC(=O)N4CCC[C@H]4C(F)(F)F)c(=O)c23)cc2cn[nH]c12
B (8≥pIC50>7)	B (8≥pIC50>7)	CN(c1cc(F)c2[nH]ncc2c1)c1cccc2ccn(CC(=O)N3CCC[C@H]3C(F)(F)F)c(=O)c12
C (7≥pIC50>6)	B (8≥pIC50>7)	Cc1cc(Nc2cccc3ccn(CC(=O)NCC(F)(F)F)c(=O)c23)cc2[nH]ncc12
D (pIC50≤6)	B (8≥pIC50>7)	COc1cc(Nc2cccc3ccn(CC(=O)NCC(F)(F)F)c(=O)c23)cc2cn[nH]c12
B (8≥pIC50>7)	A (pIC50>8)	O=C(Cn1ccc2cccc(Nc3cc(C(F)(F)F)c4[nH]ncc4c3)c2c1=O)NCC(F)(F)F
B (8≥pIC50>7)	A (pIC50>8)	O=C(Cn1ccc2cccc(Nc3cnc4[nH]ncc4c3)c2c1=O)Nc1cncc(C(F)(F)F)c1
B (8≥pIC50>7)	A (pIC50>8)	COC(=O)c1cc(Nc2cccc3ccn(CC(=O)NCC(F)(F)F)c(=O)c23)cc2cn[nH]c12
C (7≥pIC50>6)	B (8≥pIC50>7)	O=C(Cn1ccc2cccc(Nc3cnc4[nH]ncc4c3)c2c1=O)N1CCC[C@H]1C(F)(F)F
D (pIC50≤6)	D (pIC50≤6)	Cn1ncc2cc(Nc3cccc4ccn(CC(=O)N5CCCCC5C(C)(C)O)c(=O)c34)ccc21 (centres unmarked)
C (7≥pIC50>6)	A (pIC50>8)	CCc1cc(Nc2cccc3ccn(CC(=O)NCC(F)(F)F)c(=O)c23)cc2cn[nH]c12
B (8≥pIC50>7)	A (pIC50>8)	Cc1cc(Nc2cccc3ccn(CC(=O)N4CCC[C@H]4C(F)(F)F)c(=O)c23)cc2cn[nH]c12
